# Data as given in patent publication US10329283B2, “G protein-coupled receptor kinase inhibitors and methods for use of the same” (THE REGENTS OF THE UNIVERSITY OF MICHIGAN, priority 2015, dated 2019).
# Chains of the proteins cited; added tags and fusions are not shown.
# UniProt P34947, whole entry, species assumed: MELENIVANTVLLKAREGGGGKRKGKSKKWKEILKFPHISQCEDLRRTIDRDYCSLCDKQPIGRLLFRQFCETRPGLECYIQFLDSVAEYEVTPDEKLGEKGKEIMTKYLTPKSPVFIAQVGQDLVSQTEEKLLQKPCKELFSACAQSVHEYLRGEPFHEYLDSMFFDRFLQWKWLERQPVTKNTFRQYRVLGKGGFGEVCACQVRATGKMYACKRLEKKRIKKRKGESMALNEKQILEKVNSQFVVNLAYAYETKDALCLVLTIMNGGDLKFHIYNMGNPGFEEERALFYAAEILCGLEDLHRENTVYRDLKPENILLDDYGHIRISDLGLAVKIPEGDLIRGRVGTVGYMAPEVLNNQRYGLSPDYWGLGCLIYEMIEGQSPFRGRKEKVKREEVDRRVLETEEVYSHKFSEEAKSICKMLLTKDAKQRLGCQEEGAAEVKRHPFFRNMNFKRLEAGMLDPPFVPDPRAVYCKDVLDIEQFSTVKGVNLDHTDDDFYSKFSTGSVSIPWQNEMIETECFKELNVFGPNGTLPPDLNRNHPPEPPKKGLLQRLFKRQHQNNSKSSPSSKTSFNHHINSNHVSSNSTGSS
# Molecular target: GRK5 (Homo sapiens, UniProt P34947)
# Test: GRK5 kinetic assay for inhibition of GRKs (phosphorimaging)
# Type: biochemical
# Settings: 50 nM GRK, 5 μM ATP, 500 nM bROS or tubulin, 5 min
# Experimental: The low salt concentration and DDM were used to maximize GRK activity and disrupt small molecule aggregates from forming, respectively. […] Data was analyzed and inhibition curves were fit via GraphPad Prism.
structure (smiles),measurement,value
"Fc1ccc([C@@H]2CCNC[C@H]2COc2ccc3c(c2)OCO3)cc1 [Paroxetine, reference compound]",IC50,> 100 µM
